{"source": "PubChem BioAssay AID602139", "about": "(NMMLSC, 2011)", "system": "Botulinum neurotoxin type A light chain protease (Clostridium botulinum A str. ATCC 3502)", "experiment": "BoNT/A light chain protease inhibitors, confirmation, biochemical, flow cytometry, cherry pick 1 (AID 602139)", "conditions": "multiplex microsphere protease assay, at 10 µM, stronger effect = higher value", "note": "This is a selection; strong and weak results do not stand in their true shares. Some tests of the compounds listed are not included; inactive here does not mean inactive elsewhere. Activity calls are given as the source filed them. Rule as the data show it: active = inhibition above about 32%; inactive = the rest."}
{"molecule": "CN1[C@@H]2CC[C@H]1CC(OC(=O)C(O)(c1ccccc1)c1ccccc1)C2", "note": "(stereo partly specified)", "values": [{"measurement": "inhibition", "result": "inactive: 0.2%"}]}
